According to patent US6699854B2, “Anti-cancer compounds” (Cyclacel Limited, priority 2000, dated 2004):

Target: CDK2/cyclin E (Homo sapiens, UniProt P24941)
Assay: CDK2/cyclin E kinase assay (GST-Rb phosphorylation);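 note: enzyme source: His-tagged CDK2/cyclin E co-expressed in Sf9 insect cells via baculovirus, then purified by metal-chelate chromatography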
Conditions: Table 2, further results for CDK2/cyclin E inhibition

## Cc1nc(C)c(-c2ccnc(Nc3cccc(Cl)c3)n2)s1 [Compound 7, (3-Chloro-phenyl)-{4-(2,4-dimethyl-thiazol-5-yl)-pyrimidin-2-yl}-amine]
  IC50: 100 nM

## Cc1nc(C)c(-c2ccnc(Nc3ccc([N+](=O)[O-])cc3)n2)s1 [Compound 13, {4-(2,4-Dimethyl-thiazol-5-yl)-pyrimidin-2-yl}-(4-nitro-phenyl)-amine]
  IC50: 8000 ± 3000 nM

## Cc1nc(C)c(-c2ccnc(Nc3ccccc3F)n2)s1 [Compound 20, {4-(2,4-Dimethyl-thiazol-5-yl)-pyrimidin-2-yl}-(2-fluoro-phenyl)-amine]
  IC50: 2500 ± 100 nM

## Cc1nc(C)c(-c2ccnc(Nc3cccc(F)c3)n2)s1 [Compound 35, {4-(2,4-Dimethyl-thiazol-5-yl)-pyrimidin-2-yl}-(3-fluoro-phenyl)-amine]
  IC50: 200 ± 100 nM

## Cc1nc(C)c(-c2ccnc(Nc3ccc(O)cc3)n2)s1 [Compound 41, 4-{4-(2,4-Dimethyl-thiazol-5-yl)-pyrimidin-2-ylamino}-phenol]
  IC50: 60 nM

## Cc1nc(C)c(-c2ccnc(Nc3cccc(N)c3)n2)s1 [Compound 47, N-{4-(2,4-Dimethyl-thiazol-5-yl)-pyrimidin-2-yl}-benzene-1,3-diamine]
  IC50: 800 ± 400 nM

## CNc1nc(C)c(-c2ccnc(Nc3cccc(O)c3)n2)s1 [Compound 85, 3-{4-(4-Methyl-2-methylamino-thiazol-5-yl)-pyrimidin-2-ylamino}-phenol]
  IC50: 90 nM
